Assays:
[1] = Stability studies in PBS pH 7.2 or acetate buffer pH 5.1 at 37° C., HPLC; assay type: physicochemical
Description: The other samples were injected directly into the HPLC.

[2] = pooled human serum, 37° C., 7 days

Substance | Stability in aqueous environments (in words) [1] | Stability Human serum, loss of starting material [2] [% loss 7 d]
CBZ-VAL-CIT-PAB-OCO-(1S, 2R)-(N-ACETYL)NOREPHEDRINE [Compound 10] | unstable | –
CBZ-VAL-CIT-PAB-O-(N-AC)-NOR [Compound 5] | – | 0

Reference: patent US7553816B2, “p-amidobenzylethers in drug delivery agents” (priority 2001, dated 2009)
